# Laboratory results reported in ChEMBL document CHEMBL5260839 (J Med Chem, 2019).
# By UniProt entry, the sequences of proteins in these tests, tags left out. Where a name states a change or a piece, a line headed by the entry shows the natural chain unless it says otherwise.
# UniProt Q00987, whole entry, looked up: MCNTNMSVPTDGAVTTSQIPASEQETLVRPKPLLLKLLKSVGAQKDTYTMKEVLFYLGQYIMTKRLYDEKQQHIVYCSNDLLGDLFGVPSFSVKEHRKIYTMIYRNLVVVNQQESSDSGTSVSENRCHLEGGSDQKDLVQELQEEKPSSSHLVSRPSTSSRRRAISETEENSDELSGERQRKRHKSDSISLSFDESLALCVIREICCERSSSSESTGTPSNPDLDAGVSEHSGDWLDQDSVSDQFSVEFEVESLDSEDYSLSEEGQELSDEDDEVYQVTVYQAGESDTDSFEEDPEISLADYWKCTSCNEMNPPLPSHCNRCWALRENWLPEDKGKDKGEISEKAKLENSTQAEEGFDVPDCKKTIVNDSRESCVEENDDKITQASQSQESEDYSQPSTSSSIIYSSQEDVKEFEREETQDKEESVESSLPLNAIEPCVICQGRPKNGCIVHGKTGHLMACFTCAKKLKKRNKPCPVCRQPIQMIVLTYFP
# UniProt Q96SW2: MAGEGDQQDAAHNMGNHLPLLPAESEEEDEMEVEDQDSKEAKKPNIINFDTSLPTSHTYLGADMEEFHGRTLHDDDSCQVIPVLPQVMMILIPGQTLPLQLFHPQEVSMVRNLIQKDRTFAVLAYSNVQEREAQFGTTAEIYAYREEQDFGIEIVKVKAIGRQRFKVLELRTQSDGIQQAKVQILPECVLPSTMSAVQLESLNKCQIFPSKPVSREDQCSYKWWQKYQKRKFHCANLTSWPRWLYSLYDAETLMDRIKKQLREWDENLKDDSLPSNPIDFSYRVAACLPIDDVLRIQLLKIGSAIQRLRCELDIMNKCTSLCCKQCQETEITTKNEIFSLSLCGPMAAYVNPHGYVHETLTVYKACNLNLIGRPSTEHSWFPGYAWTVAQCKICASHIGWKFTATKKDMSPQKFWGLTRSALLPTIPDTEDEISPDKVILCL
# Experiments:
# [1] = target: T1, Protein cereblon/E3 ubiquitin-protein ligase Mdm2 (Homo sapiens) (UniProt Q00987+Q96SW2); experiment: PROTAC activity at CRBN/MDM2 in human RS4-11 cells harbouring wildtype p53 assessed as fold decrease in MDM2 protein level at 30 nM preincubated with MG-132 for 4 hrs followed by compound treatment and measured after 2 hrs by Western blot analysis; assay type: cell-based
# [2] = target: T1, Protein cereblon/E3 ubiquitin-protein ligase Mdm2 (Homo sapiens); experiment: PROTAC activity at CRBN/MDM2 in human MV4-11 cells assessed as fold increase in p53 accumulation at 30 nM incubated for 2 hrs by Western blot analysis; assay type: cell-based
# [3] = target: T1, Protein cereblon/E3 ubiquitin-protein ligase Mdm2 (Homo sapiens); experiment: PROTAC activity at CRBN/MDM2 in human RS4-11 cells harbouring wildtype p53 assessed as decrease in MDM2 protein level at 10 nM incubated for 2 hrs by Western blot analysis; assay type: cell-based
# [4] = target: T1, Protein cereblon/E3 ubiquitin-protein ligase Mdm2 (Homo sapiens); experiment: In vivo PROTAC activity at CRBN/MDM2 in human RS4-11 cells xenografted in mouse assessed as fold change in p53 protein level in tumor at 25 mg/kg, iv administered as single dose and measured after 3 hrs by Western blot analysis; assay type: functional, organism-based
# [5] = target: T1, Protein cereblon/E3 ubiquitin-protein ligase Mdm2 (Homo sapiens); experiment: In vivo PROTAC activity at CRBN/MDM2 in human RS4-11 cells xenografted in mouse assessed as fold change in p53 protein level in tumor at 25 mg/kg, iv administered as single dose and measured after 6 hrs by Western blot analysis; assay type: functional, organism-based
# [6] = target: T1, Protein cereblon/E3 ubiquitin-protein ligase Mdm2 (Homo sapiens); experiment: PROTAC activity at CRBN/MDM2 in human RS4-11 cells harbouring wildtype p53 assessed as decrease in MDM2 protein level at 30 nM incubated for 2 hrs by Western blot analysis; assay type: cell-based
# [7] = target: T1, Protein cereblon/E3 ubiquitin-protein ligase Mdm2 (Homo sapiens); experiment: PROTAC activity at CRBN/MDM2 in human MV4-11 cells assessed as fold reduction in MDM2 protein at 3 nM incubated for 2 hrs by Western blot analysis; assay type: cell-based
# [8] = target: T1, Protein cereblon/E3 ubiquitin-protein ligase Mdm2 (Homo sapiens); experiment: PROTAC activity at CRBN/MDM2 in human RS4-11 cells harbouring wildtype p53 assessed as increase in p53 accumulation at 3 nM incubated for 2 hrs by Western blot analysis; assay type: cell-based
# [9] = target: T1, Protein cereblon/E3 ubiquitin-protein ligase Mdm2 (Homo sapiens); experiment: In vivo PROTAC activity at CRBN/MDM2 in human RS4-11 cells xenografted in mouse assessed as fold change in p53 protein level in tumor at 25 mg/kg, iv administered as single dose and measured after 24 hrs by Western blot analysis; assay type: functional, organism-based
# [10] = target: T1, Protein cereblon/E3 ubiquitin-protein ligase Mdm2 (Homo sapiens); experiment: PROTAC activity at CRBN/MDM2 in human RS4-11 cells harbouring wildtype p53 assessed as fold increase in p53 accumulation at 0.03 uM incubated for 2 hrs in the presence of lenalidomide by Western blot analysis; assay type: cell-based
# [11] = target: T1, Protein cereblon/E3 ubiquitin-protein ligase Mdm2 (Homo sapiens); experiment: PROTAC activity at CRBN/MDM2 in human RS4-11 cells harbouring wildtype p53 assessed as fold change in p53 accumulation at 30 nM preincubated with MLN4924 for 4 hrs followed by compound treatment and measured after 2 hrs by Western blot analysis; assay type: cell-based
# [12] = target: T1, Protein cereblon/E3 ubiquitin-protein ligase Mdm2 (Homo sapiens); experiment: In vivo PROTAC activity at CRBN/MDM2 in human RS4-11 cells xenografted in mouse assessed as fold change in MDM2 protein level in tumor at 25 mg/kg, iv administered as single dose and measured after 6 hrs by Western blot analysis; assay type: functional, organism-based
# [13] = target: T1, Protein cereblon/E3 ubiquitin-protein ligase Mdm2 (Homo sapiens); experiment: In vivo PROTAC activity at CRBN/MDM2 in human RS4-11 cells xenografted in mouse assessed as fold change in p21 protein level in tumor at 25 mg/kg, iv administered as single dose and measured after 3 hrs by Western blot analysis; assay type: functional, organism-based
# [14] = target: T1, Protein cereblon/E3 ubiquitin-protein ligase Mdm2 (Homo sapiens); experiment: PROTAC activity at CRBN/MDM2 in human MV4-11 cells assessed as fold reduction in MDM2 protein at 30 nM incubated for 2 hrs by Western blot analysis; assay type: cell-based
structure (smiles),measurement,setting,value
O=C1CCC(N2Cc3c(C#CCCCNC(=O)c4ccc(NC(=O)[C@@H]5NC6(CCCCC6)[C@@]6(C(=O)Nc7cc(Cl)ccc76)[C@H]5c5cccc(Cl)c5F)cc4)cccc3C2=O)C(=O)N1 (some centres undefined),fold change (FC),[1],3.1
same,fold change (FC),[2],10.2
same,fold change (FC),[3],0.02
same,fold change (FC),[4],3.3
same,fold change (FC),[5],2.6
same,fold change (FC),[6],0.01
same,fold change (FC),[7],0.3
same,fold change (FC),[8],1.7
same,fold change (FC),[9],2.9
same,fold change (FC),[10],2.5
same,fold change (FC),[11],10.3
same,fold change (FC),[12],0.2
same,fold change (FC),[13],1.4
same,fold change (FC),[14],0.5
